For two compounds, EC50 and Ki results are on record in ChEMBL document CHEMBL1140563, “Redefining the structure-activity relationships of 2,6-methano-3-benzazocines. 5. Opioid receptor binding properties of N-((4'-phenyl)-phenethyl) analogues of 8-CAC” (Bioorg Med Chem Lett, 2007).

By UniProt entry, the sequences of proteins in these tests, tags left out. Where a name states a change or a piece, a line headed by the entry shows the natural chain unless it says otherwise.
UniProt P41145: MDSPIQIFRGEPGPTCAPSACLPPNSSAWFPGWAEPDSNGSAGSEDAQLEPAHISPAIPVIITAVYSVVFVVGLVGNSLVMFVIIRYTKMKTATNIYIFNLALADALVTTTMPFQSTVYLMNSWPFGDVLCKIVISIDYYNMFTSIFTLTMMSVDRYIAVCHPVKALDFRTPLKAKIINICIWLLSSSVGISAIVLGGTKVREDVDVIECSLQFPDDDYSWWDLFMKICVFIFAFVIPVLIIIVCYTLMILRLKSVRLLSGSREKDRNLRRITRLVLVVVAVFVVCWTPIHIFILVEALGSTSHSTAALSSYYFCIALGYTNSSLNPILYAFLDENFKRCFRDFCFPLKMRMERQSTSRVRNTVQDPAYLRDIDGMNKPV

For assay [1], the target named is T1, Kappa-type opioid receptor (Homo sapiens, UniProt P41145). Description: Agonist activity at human kappa opioid receptor expressed in CHO cell membrane by [35S]GTP-gamma-S binding assay. Type of assay: functional, cell membranes.
For assay [2], the target named is T1, Kappa-type opioid receptor. Description: biochemical. Type of assay: cell-based, CHO.

With `C[C@H]1C2Cc3ccc(C(=O)NCCc4ccc(-c5ccccc5)cc4)cc3[C@@]1(C)CCN2CC1CC1`, a half-maximal response in assay [1] (EC50) required 4.4 nM. `C[C@H]1C2Cc3ccc(C(=O)NCCc4cccc(-c5ccccc5)c4)cc3[C@@]1(C)CCN2CC1CC1`: in assay [2], the affinity corresponds to a Ki of 2.2 nM.
